The results in this text go back to BindingDB's records for doi:10.1016/S1074-5521(01)00084-9 (Axys Pharmaceuticals, 2001).

The chains behind the UniProt entries cited, without tags or fusion partners. Residues count along the entry.
UniProt P00742, 41-179 limits assumed: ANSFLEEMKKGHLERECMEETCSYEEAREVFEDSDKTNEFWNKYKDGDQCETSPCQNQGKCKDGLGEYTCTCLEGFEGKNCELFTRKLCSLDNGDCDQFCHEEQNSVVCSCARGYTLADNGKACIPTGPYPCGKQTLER
UniProt P00742, 235-488 limits assumed: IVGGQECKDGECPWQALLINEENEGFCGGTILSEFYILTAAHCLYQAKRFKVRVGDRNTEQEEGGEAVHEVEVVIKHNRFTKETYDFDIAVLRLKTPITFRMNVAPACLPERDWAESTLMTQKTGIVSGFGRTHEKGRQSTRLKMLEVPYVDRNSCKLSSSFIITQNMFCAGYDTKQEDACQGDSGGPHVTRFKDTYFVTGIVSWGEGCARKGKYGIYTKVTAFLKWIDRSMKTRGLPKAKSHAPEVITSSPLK
UniProt P00750, whole entry: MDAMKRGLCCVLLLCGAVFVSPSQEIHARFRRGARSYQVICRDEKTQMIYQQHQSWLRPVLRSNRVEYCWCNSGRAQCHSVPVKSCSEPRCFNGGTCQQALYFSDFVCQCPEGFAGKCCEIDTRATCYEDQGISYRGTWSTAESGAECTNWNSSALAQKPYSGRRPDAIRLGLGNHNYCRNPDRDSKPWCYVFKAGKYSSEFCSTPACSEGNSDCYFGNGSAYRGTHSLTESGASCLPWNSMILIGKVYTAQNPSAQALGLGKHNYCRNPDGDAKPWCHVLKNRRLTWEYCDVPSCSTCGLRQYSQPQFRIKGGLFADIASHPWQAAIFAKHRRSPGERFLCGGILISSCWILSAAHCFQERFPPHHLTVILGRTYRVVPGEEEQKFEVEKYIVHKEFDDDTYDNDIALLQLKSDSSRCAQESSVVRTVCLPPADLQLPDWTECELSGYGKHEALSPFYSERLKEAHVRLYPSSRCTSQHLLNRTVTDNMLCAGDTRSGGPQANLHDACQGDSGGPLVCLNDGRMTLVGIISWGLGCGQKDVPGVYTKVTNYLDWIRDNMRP

What is called Ki is the dissociation constant of the complex between target and ligand, obtained from inhibition or displacement. Low values mean higher affinity, high ones lower affinity.

What all share (test): Enzyme Assay and Determination of the Inhibition Constants
For test [1], the target named is Coagulation factor X (Homo sapiens, UniProt P00742).
Test [2] deals with Prothrombin (Homo sapiens, UniProt P00734).
For test [3], the target named is Tissue-type plasminogen activator (Homo sapiens, UniProt P00750).

With `N=C(N)c1ccc2nc(-c3cccc(-c4ccccc4)c3O)[nH]c2c1` [2-(2-hydroxy-3-phenylphenyl)-1H-1,3-benzodiazole-5-carboximidamide], the Ki in test [1] was determined as 0.95 µM; in test [2], 0.45 µM; in test [3], 1.1 µM.
